Where two headings read alike, the source gives them in different places.
System: K. pneumoniae K66-45
Format: cell-based
Conditions: inhibitor 25 mg/L
Description: After plating and grown overnight at 37° C., only single colonies, ignoring any touching the edges of the plate, were counted.
10^9 CFU K66-45 (Mueller-Hinton broth, no selection) was plated and grown overnight, 37° C. Only single colonies, ignoring any touching the edges of the plate, were counted.

CN(C[C@H](O)[C@@H](O)[C@H](O)[C@H](O)CO)C(=O)c1ccc(CN(Cc2ccccn2)Cc2ccccn2)nc1 [Example 26, 6-((bis(pyridin-2-ylmethyl)amino)methyl)-N-methyl-N-((2S,3R,4R,5R)-2,3,4,5,6-pentahydroxyhexyl)nicotinamide]
RF - no of colonies (MEM 1 mg/L): 74
RF - no of colonies (MEM 2 mg/L): 35
RF - no of colonies (MEM 4 mg/L): nc (n.c. = no colonies)
RF - no of colonies (MEM 8 mg/L): nc (n.c. = no colonies)

From patent publication US20210221791A1, “COMPOUNDS” (UNIVERSITETET I OSLO, priority 2016, published 2021)
